{"source": "patent US11883503B2", "about": "“Methods and compositions for cancer treatment” (DINGFU BIOTARGET CO., LTD., priority 2017, dated 2024)", "test_system": "B16-EGFR-SIY melanoma cells", "test": "B16-EGFR-SIY tumor model, cytotoxic chemotherapy combined with immunoconjugate", "conditions": "oxaliplatin alone 15 mg/kg tail vein day 7", "data": [{"substance": "oxaliplatin [reference compound]", "values": [{"measurement": "mortality (toxicity)", "result": "dead after 14 days"}]}]}
